# PubChem BioAssay AID435022 (Sanford-Burnham Center for Chemical Genomics, 2010)
# The entries are a selection whose mix differs from that of the whole data set. The source made the active and inactive calls. Cut-off read from the data, not from the text of the source: active = inhibition above about 35%; inactive = the rest.
# Test: lowers stimulated NF-kB luciferase signal in 697 B cells – cell-based, luminescence, uHTS, B-cell NF-kB inhibitor project, primary screen (AID 435022)
# Settings: 697 B-cell NF-kB luciferase reporter, PMA/ionomycin, 16 h; at 4 µM; active compounds read high
row,Compound,inhibition
1,CCC(=O)N(c1ccccc1)C1(COC)CCN(CCn2nnn(CC)c2=O)CC1,inactive: 11.2%
2,CCC(=O)N(c1ccccc1)C1(COC)CCN(CCc2cccs2)CC1,inactive: -5.04%
